This experiment has as its target T1, truncated human erythropoietin receptor cell line (Homo sapiens, UniProt P19235).
T1 sequence (P19235 25-468 limits assumed): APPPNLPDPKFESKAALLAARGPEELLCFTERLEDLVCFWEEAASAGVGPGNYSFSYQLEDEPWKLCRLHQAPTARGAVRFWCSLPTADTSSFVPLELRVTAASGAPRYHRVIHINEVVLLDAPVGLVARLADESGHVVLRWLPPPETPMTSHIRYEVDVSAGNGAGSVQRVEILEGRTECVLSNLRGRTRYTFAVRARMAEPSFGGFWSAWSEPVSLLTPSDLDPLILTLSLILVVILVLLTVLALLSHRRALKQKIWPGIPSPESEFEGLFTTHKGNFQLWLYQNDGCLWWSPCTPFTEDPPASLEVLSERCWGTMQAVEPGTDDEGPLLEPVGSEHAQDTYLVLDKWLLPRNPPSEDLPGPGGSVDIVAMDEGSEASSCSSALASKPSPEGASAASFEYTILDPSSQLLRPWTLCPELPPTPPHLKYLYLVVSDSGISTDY
The experiment can be described thus: cell-based.

With `CC(C)C[C@@H]1NC(=O)[C@@H]2CCCN2C(=O)CNC(=O)[C@H](Cc2ccccc2)NC(=O)[C@H](Cc2c[nH]cn2)NC(=O)[C@@H](NC(=O)[C@H](CO)NC(=O)[C@H](Cc2ccc(O)cc2)NC(=O)[C@@H](NC(=O)CNC(=O)CN)[C@@H](C)O)CSSC[C@@H](C(=O)N[C@@H](CCCCN)C(=O)N2CCC[C@H]2C(=O)N[C@@H](CCC(N)=O)C(N)=O)NC(=O)[C@H](C(C)C)NC(=O)[C@H](Cc2c[nH]c3ccccc23)NC(=O)[C@H]([C@@H](C)O)NC1=O` [RWJ 61596], a half-maximal response (EC50) required 0.02 µM.

The values are drawn from patent publication US5773569A (Affymax Technologies N.V., priority 1995, dated 1998).
